Experimental data published in patent US20070071717A1, “Treatment of B cells with IL-21 and B cell activators induces Granzyme B production” (University of Iowa Research Foundation, priority 2005, published 2007).
Entries after “also recorded” stand apart in the source; their conditions may differ.

Columns and labels:
Type in all cases: cell-based, human
[1] = tested on: B-CLL cells; assay: Granzyme B ELISpot assay with purified B-CLL cells; conditions: data not shown
Experimental: Elispot assays for human Granzyme B and Perforin. Human Granzyme B and human Perforin Elispot kits were purchased from Cell Sciences (Canton, Mass.). PVDF-bottomed 96-well plates were purchased from Millipore (Bedford, Mass.). The assays were performed according to the manufacturer's protocol. Briefly, plates were prepared by adding the capture antibody and blocking with 2% skim milk in PBS, then cells were resuspended in AIM-V medium, plated (100 μl/well), and CpG ODN (2.5 μg/ml), IL-21 (100 ng/ml) or both were added and cultured for 16 hours. Freshly isolated PBMC stimulated with PHA (10 μg/ml) for Granzyme B detection and PMA (1 ng/ml) plus lonomycin (500 ng/ml; all from Sigma, St. Louis, Mo.) for Perforin detection served as positive controls. After culture, the detection antibody was added and plates incubated for 1.5 hours. Streptavidin-alkaline phosphatase was distributed, and plates incubated for 1 hr. Finally BCIP/NBT buffer was added and color was allowed to develop for 10 minutes at room temperature followed by rinsing with distilled water. Plates were dried completely, and spots read on an Immunospot Series 1 Analyzer and counted using Immunospot 3 software, both from C.T.L. Cellular Technology Ltd. (Cleveland, Ohio).

[2] = tested on: B-CLL cells; assay: Flow cytometric apoptosis / cell survival assay (Annexin V, PI) of B-CLL cells; conditions: combined with CpG ODN; IL-2 100 U/ml, 4 days
Experimental: Apoptosis and cell survival assay. Cells were harvested at the indicated time points by staining all cells from a given well with mAb for CD19, CD5 and FITC-labeled Annexin V (BD Biosciences, San Diego, Calif.). A predetermined number of calibration beads (CaliBRITE™ Beads, BD Biosciences, San Diego, Calif.) were then added to each sample to allow for normalization of cell counts in different samples at different time points.
Flow cytometric apoptosis assays. Cells were stained with Annexin V (BD Biosciences, San Diego, Calif.), or cell-permeable fluorogenic substrates specific for Granzyme B or Caspase 6 for 1 hour at room temperature according to the manufacturer's instructions (Oncolmmunin, Gaithersburg. Md.). A pre-determined number of calibration beads (CaliBRITE™ Beads, BD Biosciences, San Diego, Calif.) was added to each sample to allow for normalization of cell counts at different time points. Propidium iodide at 1 μg/ml was added just prior to flow cytometric analysis. The count of viable cells rather than the count of apoptotic cells was used for the calculation of cell survival because of concerns some non-viable cells may have undergone lysis and not have been available for counting. Absolute cell survival was expressed as percentage of viable cell counts relative to initial plating counts.

[3] = tested on: B-CLL cells; assay: Intracellular flow cytometry for Granzyme B, Granzyme A and Perforin in B-CLL cells; conditions: 18 hours, Brefeldin A for the last hours
Experimental: Flow cytometry. Antibodies to CD5, CD19, CD27 as well as CD107a were purchased from BD Bioscoences (San Diego, Calif.). IL-21 receptor protein expression was detected using a mAB (clone 152512) from R&D Systems (Minneapolis, Minn.). PKH26 staining was used to identify untreated cells in bystander assays. B-CLL cells were resuspended at a density of 1×10^7 cells/ml in diluent C containing 2 μM PKH26 (both from Sigma, Saint Louis, Mo.). After 3 minutes, the reaction was stopped by adding an equal volume of FBS (HyClone, Ogden, Utah). Subsequently cells were washed 3 times and finally resuspended in AIM-V medium. For flow cytometric Granzyme and Perforin detection, cells were incubated at 1×10^6/ml for 13 hrs, Brefeldin A (Epicentre Technologies, Madison, Wis.) added to a final concentration of […], and cells cultured for 5 more hours. Intracellular staining was performed using a Fix and Perm kit (Caltag Laboratories, Burlingame, Calif.) according to the manufacturer's instructions. Briefly, cells were washed once and resuspended in Fixation Buffer, incubated for 15 minutes at room temperature and washed with PBS. […] Flow cytometric analyses were performed on a FACScan (Becton Dickinson Immunocytometry Systems, San Jose, Calif.) and data analyzed using the program FlowJo (version 6.4.1, Tree Star Inc., Stanford, Calif.).

Question: Which results are given for “IL-2: IL-2 purchased from Peprotech, final concentration 100 U/ml”?
Answer: Granzyme B secretion by B-CLL cells, IL-2 substituted for IL-21 [1]: did not induce secretion of Granzyme B; apoptosis of B-CLL cells, IL-2 in place of IL-21 [2]: did not induce apoptosis; also recorded: nor did it induce B-CLL cell apoptosis; Granzyme B(+) B-CLL cells, flow cytometry gating on CD19(+) [3]: not induced
